Tests used:
[1] = target: T1, Sucrase-isomaltase, intestinal (Rattus norvegicus, UniProt P23739); test: Inhibition of rat intestinal brush border membrane sucrase
[2] = target: T1, Sucrase-isomaltase, intestinal; test: Inhibition of rat intestinal brush border membrane isomaltase

Amino acid sequences for entries named in this document (tags omitted). Residues count along the entry.
UniProt P23739, 1014-1841 limits assumed: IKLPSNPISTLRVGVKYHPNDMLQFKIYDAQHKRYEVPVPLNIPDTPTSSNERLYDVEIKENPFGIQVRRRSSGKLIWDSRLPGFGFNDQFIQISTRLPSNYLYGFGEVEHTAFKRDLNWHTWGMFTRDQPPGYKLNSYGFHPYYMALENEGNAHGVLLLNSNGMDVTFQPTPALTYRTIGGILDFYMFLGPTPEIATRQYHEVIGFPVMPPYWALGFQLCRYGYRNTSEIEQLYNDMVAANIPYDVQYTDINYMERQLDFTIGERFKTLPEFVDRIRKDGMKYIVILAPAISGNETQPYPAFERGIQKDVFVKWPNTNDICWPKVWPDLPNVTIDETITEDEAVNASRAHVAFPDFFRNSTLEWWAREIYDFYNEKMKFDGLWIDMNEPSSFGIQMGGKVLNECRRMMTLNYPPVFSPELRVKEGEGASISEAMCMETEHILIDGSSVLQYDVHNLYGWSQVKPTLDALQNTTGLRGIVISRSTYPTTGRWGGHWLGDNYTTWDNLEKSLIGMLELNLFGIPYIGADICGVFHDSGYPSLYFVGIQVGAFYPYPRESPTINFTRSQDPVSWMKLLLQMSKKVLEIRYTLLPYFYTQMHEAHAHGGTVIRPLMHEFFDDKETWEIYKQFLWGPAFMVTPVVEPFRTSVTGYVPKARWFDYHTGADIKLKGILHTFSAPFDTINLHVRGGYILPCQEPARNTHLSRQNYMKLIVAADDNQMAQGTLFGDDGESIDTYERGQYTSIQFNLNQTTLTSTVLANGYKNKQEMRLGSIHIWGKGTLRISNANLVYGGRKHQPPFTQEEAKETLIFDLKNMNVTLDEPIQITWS
UniProt P23739, 1-1013 limits assumed: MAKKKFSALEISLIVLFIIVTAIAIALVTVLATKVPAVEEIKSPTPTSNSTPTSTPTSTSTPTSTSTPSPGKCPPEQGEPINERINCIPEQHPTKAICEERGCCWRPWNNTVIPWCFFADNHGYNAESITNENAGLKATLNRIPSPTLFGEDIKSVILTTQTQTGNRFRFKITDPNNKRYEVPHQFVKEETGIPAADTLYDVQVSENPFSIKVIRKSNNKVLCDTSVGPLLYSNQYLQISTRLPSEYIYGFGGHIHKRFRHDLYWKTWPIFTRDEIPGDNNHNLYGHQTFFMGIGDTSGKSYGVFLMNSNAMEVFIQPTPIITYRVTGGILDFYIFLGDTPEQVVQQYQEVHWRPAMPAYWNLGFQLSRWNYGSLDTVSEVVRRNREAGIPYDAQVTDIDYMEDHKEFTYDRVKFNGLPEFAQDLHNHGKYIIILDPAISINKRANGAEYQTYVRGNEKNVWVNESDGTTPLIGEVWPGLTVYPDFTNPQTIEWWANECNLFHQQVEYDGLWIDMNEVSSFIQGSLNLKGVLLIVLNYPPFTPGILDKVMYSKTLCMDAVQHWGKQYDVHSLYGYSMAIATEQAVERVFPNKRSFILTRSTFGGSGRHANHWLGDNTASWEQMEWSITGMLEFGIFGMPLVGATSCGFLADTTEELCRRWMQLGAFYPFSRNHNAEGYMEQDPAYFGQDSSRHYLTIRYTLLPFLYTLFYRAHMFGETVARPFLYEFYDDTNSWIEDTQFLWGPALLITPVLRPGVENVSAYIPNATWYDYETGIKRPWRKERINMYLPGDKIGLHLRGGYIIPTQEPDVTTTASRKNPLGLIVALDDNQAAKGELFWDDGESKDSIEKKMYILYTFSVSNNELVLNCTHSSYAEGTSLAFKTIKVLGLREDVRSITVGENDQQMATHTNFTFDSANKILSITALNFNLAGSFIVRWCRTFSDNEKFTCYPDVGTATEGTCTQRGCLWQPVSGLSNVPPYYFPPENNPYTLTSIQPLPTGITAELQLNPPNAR

## C[C@H]1O[C@H](O[C@H]2[C@H](O)[C@@H](O)[C@@H](O[C@H]3[C@H](O)[C@@H](O)C(O)O[C@@H]3CO)O[C@@H]2CO)[C@H](O)[C@@H](O)[C@@H]1N[C@H]1C=C(CO)[C@@H](O)[C@H](O)[C@H]1O (some centres not stated) [ACARBOSE]
[1]
  IC50: 0.56 µM
[2]
  IC50: 380 µM
